Test results published in patent US20110112079A1, “PHOSPHODIESTERASE INHIBITORS” (priority 2008, published 2011).

Sequences of proteins named here, by UniProt entry; tags and fusion partners are left off. Residues count along the entry.
UniProt P27815, 1-647 isoform P27815-4: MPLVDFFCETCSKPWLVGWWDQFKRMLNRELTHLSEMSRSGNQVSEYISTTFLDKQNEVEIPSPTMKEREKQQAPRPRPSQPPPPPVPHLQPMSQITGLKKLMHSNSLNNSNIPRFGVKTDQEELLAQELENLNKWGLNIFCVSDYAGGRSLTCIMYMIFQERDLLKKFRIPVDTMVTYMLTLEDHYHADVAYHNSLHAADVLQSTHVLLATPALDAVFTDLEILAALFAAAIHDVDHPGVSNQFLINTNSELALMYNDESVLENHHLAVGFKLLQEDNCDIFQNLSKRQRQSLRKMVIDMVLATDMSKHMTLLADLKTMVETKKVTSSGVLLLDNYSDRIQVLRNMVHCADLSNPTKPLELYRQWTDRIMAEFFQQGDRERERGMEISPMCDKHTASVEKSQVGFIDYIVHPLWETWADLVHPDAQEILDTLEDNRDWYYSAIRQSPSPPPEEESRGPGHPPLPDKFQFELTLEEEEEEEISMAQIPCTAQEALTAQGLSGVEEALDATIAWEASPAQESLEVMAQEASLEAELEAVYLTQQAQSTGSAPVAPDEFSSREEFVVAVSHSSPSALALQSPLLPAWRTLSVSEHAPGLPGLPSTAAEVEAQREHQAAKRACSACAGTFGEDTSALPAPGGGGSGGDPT

Molecular target: PDE4A1A (Homo sapiens, UniProt P27815)

Compound `COc1ccc(OC)c(-c2nnc3n2N=C(c2ccc(OC)c(O[C@@H]4CCOC4)c2)CS3)c1` [Compound 10, (R)-3-(2,5-dimethoxyphenyl)-6-(4-methoxy-3-(tetrahydrofuran-3-yloxy)phenyl)-7H-[1,2,4]-triazolo[3,4-b][1,3,4]thiadiazine] has an IC50 of 0.26 nM.
